Experimental findings from patent publication US10174081B2, “Antimicrobial peptides and uses therefore” (priority 2011, dated 2019) are described below.

One data set has as its system S. aureus (ATCC 25923). Kind of data set: Anti-microbial assay (CFU survival, EC50) against S. aureus. As to conditions: for EC50 of AMPs against S. aureus: 3 hours, 37° C., 10 mM sodium phosphate pH 7.4, ± standard deviation; for EC50: converted from μg/ml with molecular weight of TFA salt. Format: cell-based, Staphylococcus aureus. How it is done:
S. aureus (ATCC 25923, American Type Culture Collection, Manassas, Va.) was grown in Nutrient Broth (Difco Laboratories, Detroit, Mich.) at pH 7, 37° C., for 24 hours with shaking at 200 rpm. The overnight culture was frozen with 20% glycerol and stored at −80° C. The frozen stock was enumerated (CFU/ml) by dilution plating and growth on Nutrient Agar plates.
For anti-microbial assays, frozen enumerated aliquots were thawed and gently mixed immediately before use. […] Negative control wells contained bacteria with no peptide. […] The EC50 was calculated as previously described (de Latour et al., supra).
Errors were reported based on the standard deviation from the mean of the log10 EC50 values (Gordon et al., supra). 95% confidence intervals were used to determine whether points were statistically different at p=0.05.

A further data set has as its system C. albicans (ATCC 14053). Kind of data set: Anti-microbial assay (CFU survival, EC50) against C. albicans. It is filed as cell-based, Candida albicans. Conditions: for EC50 against C. albicans: 3 hours, 37° C., 10 mM sodium phosphate pH 7.4, inconsistent colony growth; for EC50: converted with molecular weight. As to the method: C. albicans (ATCC 14053) was grown up in 25 mL of Sabouraud Dextrose (SO) broth for 48 hours at 25° C., after which samples were aliquoted into 2 mL microcentrifuge tubes at 0.5 mL.
On a 96-well plate, 1×10^4 CFU per well of C. albicans were incubated with different peptide concentrations (in serial dilutions of 1:10 and 1:5) starting with […] in a solution of buffer containing 10 mM sodium phosphate at pH 7.4 (3 hours, 37° C.). Serial dilutions were then carried out in 1× Dulbecco's PBS, and samples were plated in triplicate on Sabouraud Dextrose Agar plates, incubated (25° C., 48 hours) and CFUs were counted. C. albicans survival at each peptide concentration was calculated as previously described (Amer et al., supra; de Latour et al., supra), based on the percentage of the number of colonies in each experimental plate relative to the average number of colonies observed for assay cultures lacking peptide. […] In the equation, “Top” and “Bottom” refer to the upper and lower boundaries, and were constrained to values <100% and >0%, respectively. For graphing purposes, samples that had no peptide were plotted at 10^−9 μg/ml peptide. EC50 values were determined by fitting the data from the anti-microbial assays to a standard sigmoidal dose-response curve. Errors were reported based on the standard deviation from the mean of the log EC50 values. 2. Results

For data set [1], the system named is P. aeruginosa (ATCC 19429). Kind of data set: Anti-microbial assay (CFU survival, EC50) against P. aeruginosa. Format: cell-based, Pseudomonas aeruginosa. Conditions: 3 hours, 37° C., 10 mM sodium phosphate pH 7.4, CFU counts. As to the method: P. aeruginosa (ATCC 19429, American Type Culture Collection, Manassas, Va.) was grown in Nutrient Broth (Difco Laboratories, Detroit, Mich.) at 37° C. for 24 hours with shaking at 200 rpm. The CFU/ml was determined by growth on Nutrient Agar plates. For anti-microbial assays, frozen enumerated aliquots were thawed immediately before use.
Each experiment was repeated at least twice, and a representative experiment is shown, for clarity.

The next data set deals with P. aeruginosa. Kind of data set: Galleria mellonella infection by P. aeruginosa with AMP and antibiotic treatments. Format: in vivo. As to conditions: single dose: 5 μg ciprofloxacin or 10 μg peptide. How it is done:
Galleria mellonella (wax moth caterpillars) were obtained from Vanderhorst Wholesale (Saint Marys, Ohio). Eight to twelve caterpillars of equal size/weight were randomly assigned to each group. A 1 mL tuberculin syringe was used to inject 10 μl of 1×10^3 CFU/ml of P. aeruginosa into each caterpillar via the last left proleg. […] Caterpillar control groups included: injected with only PBS, ciprofloxacin, or AMPs. The insects were then observed daily for their survival status.

The next data set deals with S. aureus. The experiment in a line: Biofilm attachment assay. It is filed as cell-based, Staphylococcus aureus. As to conditions: 1 μg/ml peptide, 1 hour, 37° C. How it is done: Biofilm attachment assays were performed in 96-well microtiter plates (BD Falcon 353072) as previously described (Overhage et al., supra). Overnight cultures of S. aureus were grown in TSB to an OD600 of about 1.0. […] The plates were incubated (1 hour, 37° C.) to allow the S. aureus to adhere to the wells. The wells were washed and OD600 measurements were taken, as in the biofilm production experiments, and the average absorbance for each treatment was determined (n=16).

A further data set concerns equine erythrocytes. The experiment in a line: Hemolysis assay. It is filed as cell-based. Conditions: 2% horse erythrocytes, up to 100 μg/ml peptide, 1 hour. As to the method: Hemolytic activities of the peptides were determined using equine erythrocytes (Hema Resource Inc., Eugene, Oreg., USA) in an assay adapted to a microtiter plate format (Papanastasiou et al., supra). Briefly, erythrocytes were prepared by centrifuging 1 ml fresh defibrinated blood (1620×g, 10 minutes) and resuspending the pelletted cells in 1 ml sterile PBS (Fisher Scientific) (pH 7). The cells were washed with PBS three times, and in the final wash the cells were re-suspended in 0.75 ml PBS. From this, a 2% erythrocyte suspension was prepared for the assay. Aliquots of sterile water (positive control), peptide, and PBS (negative control) were used in a microtiter plate. Various peptide concentrations in sterile 10 mM sodium phosphate (0.1, 1, 10, and 100 μg/ml) were tested (n=12). The assay was then incubated (1 hour, 37° C.). After centrifugation (1000×g, 10 minutes), aliquots of supernatant were carefully transferred to a new microtiter plate and the absorbance was obtained for each well. Percent hemolysis was calculated as previously described (de Latour et al., supra).

Another data set concerns S. aureus biofilm. Kind of data set: Biofilm production (crystal violet) and growth (OD600) of S. aureus in TSB. Format: cell-based, Staphylococcus aureus. As to conditions: 10 μg/ml peptide, 24 hours. As to the method: Biofilm production was measured as previously described (Durham-Colleran et al., supra) with the following modifications. […] The positive control was S. aureus in TSB with no peptide. Six wells were used for each peptide concentration (n=6). After 24 hours, the optical densities (OD) of the wells were taken at 600 nm to quantify […]. The biofilm production was measured using the crystal violet stain technique (Durham-Colleran et al., supra). All experiments were repeated at least twice.

≈ marks a conversion by molar mass, not a printed value. Where “and” joins values, the source holds several entries; their conditions need not be identical. Equal entries are not always repeated. Entries after “also recorded” stand apart in the source; their conditions may differ.

Usually EC50 stands for the concentration giving half of the maximal effect. In the case of `CC(C)C[C@H](NC(=O)[C@H](CCCCN)NC(=O)[C@H](CCCCN)NC(=O)[C@H](Cc1ccccc1)NC(=O)[C@H](Cc1ccccc1)NC(=O)[C@H](CCCCN)NC(=O)[C@H](CCCCN)NC(=O)[C@H](Cc1ccccc1)NC(=O)[C@H](CCCNC(=N)N)NC(=O)[C@@H](N)CCCCN)C(=O)N[C@@H](CCCCN)C(N)=O` [ATRA-1], in the data set on S. aureus (ATCC 25923), the “EC50 of AMPs against S. aureus” value was 1.1 µg/mL and 1.5 ± 1.5 µg/mL and 1.06 ± 1.5 µg/mL; the EC50 came out at 0.44 µM. For the same compound, in the data set with C. albicans (ATCC 14053), the “EC50 against C. albicans” value is 56.37 µg/mL (≈ 37.7 µM) and the response was half-maximal at 37.7 µM (EC50). In addition, the “Inhibition of C. albicans” value in the data set with C. albicans (ATCC 14053) (at 500 and 100 μg) is given as “consistently seen”.
On to `C[C@H](NC(=O)[C@H](CCCNC(=N)N)NC(=O)[C@@H](N)CCCCN)C(=O)N[C@@H](CCCCN)C(=O)N[C@@H](CCCCN)C(=O)N[C@@H](Cc1ccccc1)C(=O)N[C@@H](Cc1ccccc1)C(=O)N[C@@H](CCCCN)C(=O)N[C@@H](CCCCN)C(=O)N1CCC[C@H]1C(=O)N[C@@H](CCCCN)C(N)=O` [ATRA-2], for which, in the data set with S. aureus (ATCC 25923), the “EC50 of AMPs against S. aureus” value is 37 µg/mL and 37.1 ± 1.6 µg/mL; the EC50 was found to be 16 µM. In the data set on C. albicans (ATCC 14053), the “EC50 against C. albicans” value was determined as 97.27 µg/mL (≈ 69.2 µM) and a half-maximal effect (EC50) was put at 69.2 µM.
Consider `CC[C@H](C)[C@H](NC(=O)[C@@H](NC(=O)[C@H](CCCCN)NC(=O)[C@H](CC(C)C)NC(=O)[C@H](CCCCN)NC(=O)[C@H](CCCCN)NC(=O)[C@H](Cc1ccccc1)NC(=O)[C@H](Cc1ccccc1)NC(=O)[C@H](CCCCN)NC(=O)[C@H](CCCCN)NC(=O)[C@H](Cc1ccccc1)NC(=O)[C@H](CCCNC(=N)N)NC(=O)[C@H](CCCCN)NC(=O)[C@H](CCCCN)NC(=O)[C@@H](NC(=O)[C@H](CO)NC(=O)[C@H](CC(N)=O)NC(=O)[C@H](CCCCN)NC(=O)[C@H](CC(C)C)NC(=O)[C@H](CCCCN)NC(=O)[C@H](CCCCN)NC(=O)[C@H](Cc1ccccc1)NC(=O)[C@H](Cc1ccccc1)NC(=O)[C@H](CCCCN)NC(=O)[C@H](CCCCN)NC(=O)[C@H](Cc1ccccc1)NC(=O)[C@H](CCCNC(=N)N)NC(=O)[C@@H](N)CCCCN)C(C)C)C(C)C)C(=O)NCC(=O)N[C@H](C(=O)N[C@H](C(=O)N[C@@H](Cc1ccccc1)C(=O)N1CCC[C@H]1C(=O)N[C@@H](Cc1ccccc1)C(=O)O)[C@@H](C)O)C(C)C` [NA-CATH:ATRA1-ATRA1], for which the “EC50 of AMPs against P. aeruginosa” value in data set [1] was 0.37 µg/mL. The “effect on survival of infected G. mellonella” value in the data set with P. aeruginosa is given as “did not improve survival; also recorded: ineffective at prolonging survival”. The “EC50 of AMPs against S. aureus” value in the data set on S. aureus (ATCC 25923) is 1.0 µg/mL and 1.01 ± 1.4 µg/mL. For the same compound, in the data set on S. aureus, the “attachment of S. aureus to polystyrene wells” value was “did not decrease”. In the data set on equine erythrocytes, the hemolysis entry is recorded as “did not elicit statistically significant hemolysis”.
On to `CC[C@H](C)[C@H](NC(=O)[C@@H](NC(=O)[C@H](CCCCN)NC(=O)[C@@H]1CCCN1C(=O)[C@H](CCCCN)NC(=O)[C@H](CCCCN)NC(=O)[C@H](Cc1ccccc1)NC(=O)[C@H](Cc1ccccc1)NC(=O)[C@H](CCCCN)NC(=O)[C@H](CCCCN)NC(=O)[C@H](C)NC(=O)[C@H](CCCNC(=N)N)NC(=O)[C@H](CCCCN)NC(=O)[C@H](CCCCN)NC(=O)[C@@H](NC(=O)[C@H](CO)NC(=O)[C@H](CC(N)=O)NC(=O)[C@H](CCCCN)NC(=O)[C@H](CC(C)C)NC(=O)[C@H](CCCCN)NC(=O)[C@H](CCCCN)NC(=O)[C@H](Cc1ccccc1)NC(=O)[C@H](Cc1ccccc1)NC(=O)[C@H](CCCCN)NC(=O)[C@H](CCCCN)NC(=O)[C@H](Cc1ccccc1)NC(=O)[C@H](CCCNC(=N)N)NC(=O)[C@@H](N)CCCCN)C(C)C)C(C)C)C(=O)NCC(=O)N[C@H](C(=O)N[C@H](C(=O)N[C@@H](Cc1ccccc1)C(=O)N1CCC[C@H]1C(=O)N[C@@H](Cc1ccccc1)C(=O)O)[C@@H](C)O)C(C)C` [NA-CATH, reference compound], for which, in the data set with S. aureus (ATCC 25923), the “EC50 of AMPs against S. aureus” value is 5.7 µg/mL and 5.74 ± 1.5 µg/mL; the EC50 turned out to be 0.98 µM. Besides, the “inhibition of biofilm formation” value in the data set on S. aureus biofilm is recorded as approximately 50%. Moreover, in the data set with S. aureus, the “attachment of S. aureus to polystyrene wells” value is “did not decrease”.
